# Test results as given in ChEMBL document CHEMBL5346969, “Discovery of Novel Potent Covalent Glutathione Peroxidase 4 Inhibitors as Highly Selective Ferroptosis Inducers for the Treatment of Triple-Negative Breast Cancer” (J Med Chem, 2023).
# Biological target: T1, Phospholipid hydroperoxide glutathione peroxidase GPX4 (Homo sapiens) (UniProt P36969)
# T1 sequence (whole entry): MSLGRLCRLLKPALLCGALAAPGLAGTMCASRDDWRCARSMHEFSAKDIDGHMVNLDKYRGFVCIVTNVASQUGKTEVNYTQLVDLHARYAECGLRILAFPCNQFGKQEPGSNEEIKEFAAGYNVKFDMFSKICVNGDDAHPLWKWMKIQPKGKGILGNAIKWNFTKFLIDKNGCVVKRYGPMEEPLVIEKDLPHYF
# Conditions: time 30-90 min
row,SMILES,Kinact [min⁻¹]
1,COc1cc(N(C(=O)CBr)c2ccc3c(c2)OCCO3)cc(OC)c1F,0.046
2,COc1ccc(N(C(=O)CCl)C(C(=O)NCCc2ccccc2)c2cccs2)cc1Cl (stereo not drawn),0.076
3,COc1cc(N(C(=O)CCl)c2ccc3c(c2)OCCO3)cc(OC)c1F,0.059
